Where only a bound is given, the exact number is not on record here.

Protein sequences, listed by entry. Tags and fused reporters are not part of them.
UniProt O14757, whole entry: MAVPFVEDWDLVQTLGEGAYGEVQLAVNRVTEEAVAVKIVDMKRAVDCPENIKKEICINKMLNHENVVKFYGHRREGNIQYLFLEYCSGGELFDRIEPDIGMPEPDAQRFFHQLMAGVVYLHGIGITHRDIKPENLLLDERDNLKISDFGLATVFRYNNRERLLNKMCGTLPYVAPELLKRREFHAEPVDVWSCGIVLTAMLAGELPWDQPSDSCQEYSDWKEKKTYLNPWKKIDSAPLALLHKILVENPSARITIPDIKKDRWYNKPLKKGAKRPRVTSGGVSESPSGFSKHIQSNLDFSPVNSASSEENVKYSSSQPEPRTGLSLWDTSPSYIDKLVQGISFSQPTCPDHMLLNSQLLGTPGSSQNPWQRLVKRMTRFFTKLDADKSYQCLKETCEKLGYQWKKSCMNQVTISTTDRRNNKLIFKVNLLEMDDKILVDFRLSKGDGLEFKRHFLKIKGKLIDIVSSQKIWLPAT

Test [1] concerns ecDNA+ FGFR2 amplified gastric cancer SNU-16 CDX. Kind of test: In vivo anti-tumor activity, SNU-16 CDX model. Conditions: SNU-16 CDX tumors in vivo; prolonged treatment.
The test system of test [2] is SNU-16 tumor cells (FGFR2 copy number on ecDNA). Kind of test: Suppression of ecDNA amplification, prolonged treatment of SNU-16 tumor cells in vitro.
Test [3] deals with p-CHK1 (Ser345) in HT29 cells (Homo sapiens, UniProt O14757). Kind of test: AlphaLISA SureFire Ultra p-CHK1 (Ser345) cellular assay in HT29 cells. Conditions: read-out: AlphaLisa Cellular Activity, 16 h, 37 °C. In general terms: Bead proximity is the source of the signal in Alpha formats.
Test [4] addresses Full-length human CHK1 protein (Homo sapiens, UniProt O14757). Kind of test: Kinase HTRF Biochemical Assay (HTRF KinEASE), Chk1 enzyme activity. Conditions: read-out: Chk1 Enzyme Activity; ATP 1 mM; STK substrate 1-biotin 120 nM; 60 min, room temperature.

As to `CCN1CCN(c2ccc(Nc3cc(N(C)C(=O)Nc4c(Cl)c(OC)cc(OC)c4Cl)ncn3)cc2)CC1`, in test [1], the acquired resistance result was “acquired resistance to infigratinib treatment occurred” and the “period of tumor cell stasis” value is reported as 1-2 weeks. For the same compound, the “FGFR2 copy number on ecDNA” value in test [2] (SNU-16 tumor cells) is reported as “increased amplification of FGFR2 (copy number) on ecDNA”. In test [2] (SNU-16 tumor cells in vitro), the acquired resistance entry is given as “acquired resistance to infigratinib treatment occurred” and the “period of tumor cell stasis” value was 1-2 weeks.

Regarding `COc1cc(C)nc(O[C@@H]2CC[C@H](N)C2)c1-c1cc(Nc2cnc(C#N)cn2)n[nH]1`, in test [3], the IC50 was less than 50 nM.

`Cc1ccc(O[C@@H]2CC[C@H](N)C2)c(-c2cc(Nc3cnc(C#N)cn3)n[nH]2)n1`: in test [4], the IC50 lay within 1 to 10 nM.

On to `COc1nc(C)cc(O[C@@H]2CC[C@H](N)C2)c1-c1cc(Nc2ccc(C#N)cn2)n[nH]1`, for which the IC50 in test [3] was 100 to 500 nM.

For `COc1nc(C)cc(O[C@@H]2CCCC[C@@H]2N)c1-c1cc(Nc2cnc(C#N)cn2)n[nH]1`, the IC50 in test [3] lay within 100 to 500 nM.

As for `COc1nc(C)cc(O[C@H]2CC[C@H](N)CC2)c1-c1cc(Nc2cnc(C#N)cn2)n[nH]1`, in test [3], the IC50 was 50 to 100 nM.

Take `COc1nccc(O[C@H]2C[C@H](N)C2)c1-c1cc(Nc2cnc(C(N)=O)cn2)n[nH]1`: the IC50 in test [3] lay within 100 to 500 nM.

Consider `Cc1ncc(O[C@@H]2CC[C@H](N)C2)c(-c2cc(Nc3cnc(C#N)cn3)n[nH]2)n1`, for which the IC50 in test [3] was in the range of 100 to 500 nM.

In the case of `COc1nc(C)cc(O[C@@H]2CC[C@@H](N(C)C)C2)c1-c1cc(Nc2cnc(C#N)cn2)n[nH]1`, the IC50 in test [3] is 50 to 100 nM.

Turning to `COc1nccc(O[C@H]2CC[C@H](N)CC2)c1-c1cc(Nc2cnc(C#N)cn2)n[nH]1`, the IC50 in test [3] lay within 50 to 100 nM.

Take `CN[C@H]1C[C@H](Oc2ccncc2-c2cc(Nc3cnc(C#N)cn3)n[nH]2)C1`: in test [3], the IC50 is greater than 1000 nM.

Turning to `COc1nc(C2CC2)cc(O[C@@H]2CC[C@H](N)C2)c1-c1cc(Nc2ccc(C#N)nc2)n[nH]1`, the IC50 in test [3] lay in the range of 100 to 500 nM.

With `COc1nc(C2CC2)cc(O[C@H]2CCCC[C@@H](N)C2)c1-c1cc(Nc2cnc(C#N)cn2)n[nH]1`, the IC50 in test [3] is less than 50 nM.

On to `Cc1cc(O[C@@H]2CC[C@H](N)C2)c(-c2cc(Nc3cnc(C#N)cn3)n[nH]2)nc1C`, for which, in test [4], the IC50 lay in the range of 1 to 10 nM.

Regarding `CN[C@H]1CC[C@@H](Oc2nccc(OC)c2-c2cc(Nc3cnc(C#N)cn3)n[nH]2)C1`, the IC50 in test [3] was less than 50 nM.

With `COc1nc(C)cc(O[C@H]2C[C@H](N)C2)c1-c1cc(Nc2cnc(C#N)cn2)n[nH]1`, the IC50 in test [3] is less than 50 nM.

In the case of `COc1nc(C)cc(O[C@@H]2CC[C@@H]2N)c1-c1cc(Nc2cnc(C#N)cn2)n[nH]1`, the IC50 in test [3] is 500 to 1000 nM.

`COc1nc(C)cc(O[C@H]2CC[C@H]2N)c1-c1cc(Nc2cnc(C#N)cn2)n[nH]1`: the IC50 in test [3] was less than 50 nM.

Consider “rac-5-((5-(4-((-3-aminocycloheptyl)oxy)-6-cyclopropyl-2-methoxypyridin-3-yl)-1H-pyrazol-3-yl)amino)pyrazine-2-carbonitrile”, for which the IC50 in test [4] is 1 to 10 nM.

For `CCCc1ccc(O[C@@H]2CC[C@H](N)C2)c(-c2cc(Nc3cnc(C#N)cn3)n[nH]2)n1`, the IC50 in test [4] lay in the range of 1 to 10 nM.

In the case of `CN[C@H]1CC[C@@H](Oc2ccnc(OC)c2-c2cc(Nc3cnc(C#N)cn3)n[nH]2)C1`, in test [3], the IC50 is less than 50 nM.

As for `CN[C@H]1CC[C@H](Oc2nccc(OC)c2-c2cc(Nc3cnc(C#N)cn3)n[nH]2)C1`, in test [3], the IC50 is less than 50 nM.

Take `COc1nccc(O[C@H]2C[C@H](N)C2)c1-c1cc(Nc2cnc(C#N)cn2)n[nH]1`: the IC50 in test [3] was in the range of 50 to 100 nM.

Take `COc1nc(CC(C)C)cc(O[C@@H]2CC[C@H](N)C2)c1-c1cc(Nc2cnc(C#N)cn2)n[nH]1`: the IC50 in test [3] is less than 50 nM.

For the compound `CN[C@H]1C[C@H](Oc2ccnc(OC)c2-c2cc(Nc3cnc(C#N)cn3)n[nH]2)C1`, the IC50 in test [3] was less than 50 nM.

As for “5-((5-(4-(((1R,3S)-3-aminocyclopentyl)oxy)pyridin-3-yl)-1H-pyrazol-3-yl)amino)pyrazine-2-carbonitrile”, the IC50 in test [4] is 100 to 500 nM; in test [3], greater than 1000 nM.

For the compound `COc1nc(C)cc(O[C@H]2CCCC[C@H](N)C2)c1-c1cc(Nc2cnc(C#N)cn2)n[nH]1`, the IC50 in test [3] was less than 50 nM.

For `COc1nc(C2CC2)cc(O[C@@H]2CC[C@H]2N)c1-c1cc(Nc2cnc(C#N)cn2)n[nH]1`, the IC50 in test [3] is less than 50 nM.

On to `COc1ccnc(O[C@H]2C[C@H](N)C2)c1-c1cc(Nc2cnc(C#N)cn2)n[nH]1`, for which, in test [3], the IC50 fell in the range of 50 to 100 nM.

With `COc1ccnc(O[C@@H]2CC[C@H](N)C2)c1-c1cc(Nc2cnc(C#N)cn2)n[nH]1`, the IC50 in test [3] was less than 50 nM.

Regarding `COc1nc(C)cc(O[C@H]2CC[C@@H]2N)c1-c1cc(Nc2cnc(C#N)cn2)n[nH]1`, the IC50 in test [3] is less than 50 nM.

As to `Cc1cc(O[C@@H]2CC[C@H](N)C2)c(-c2cc(Nc3cnc(C#N)cn3)n[nH]2)c(O)n1`, in test [3], the IC50 was greater than 1000 nM.

`COc1nc(C(C)C)cc(O[C@@H]2CC[C@H](N)C2)c1-c1cc(Nc2cnc(C#N)cn2)n[nH]1`: the IC50 in test [3] was greater than 1000 nM.

`COc1nc(C2CC2)cc(O[C@H]2CC[C@@H]2N)c1-c1cc(Nc2cnc(C#N)cn2)n[nH]1`: in test [3], the IC50 is less than 50 nM.

On to `COc1nc(C2CCC2)cc(O[C@@H]2CC[C@H](N)C2)c1-c1cc(Nc2cnc(C#N)cn2)n[nH]1`, for which the IC50 in test [3] is less than 50 nM.

For the compound `N#Cc1cnc(Nc2cc(-c3ncccc3O[C@@H]3CC[C@@H](N)C3)[nH]n2)cn1`, in test [4], the IC50 fell in the range of 1 to 10 nM.

Consider `N#Cc1cnc(Nc2cc(-c3cnccc3O[C@H]3CC[C@H](N)CC3)[nH]n2)cn1`, for which, in test [3], the IC50 is greater than 1000 nM.

Consider `COc1nc(C2(C)CC2)cc(O[C@@H]2CC[C@H](N)C2)c1-c1cc(Nc2cnc(C#N)cn2)n[nH]1`, for which the IC50 in test [3] was less than 50 nM.

With `N#Cc1cnc(Nc2cc(-c3nc(C(F)F)ccc3O[C@@H]3CC[C@H](N)C3)[nH]n2)cn1`, in test [4], the IC50 was 1 to 10 nM.

In the case of `CC(C)c1ccc(O[C@@H]2CC[C@H](N)C2)c(-c2cc(Nc3cnc(C#N)cn3)n[nH]2)n1`, the IC50 in test [4] was in the range of 1 to 10 nM.

In the case of `COc1nc(C)cc(O[C@@H]2CC[C@H](N(C)C)C2)c1-c1cc(Nc2cnc(C#N)cn2)n[nH]1`, in test [3], the IC50 was less than 50 nM.

On to `COc1nc(C)cc(O[C@H]2CCCC[C@H]2N)c1-c1cc(Nc2cnc(C#N)cn2)n[nH]1`, for which the IC50 in test [3] fell in the range of 100 to 500 nM.

Regarding `CN[C@H]1CC[C@H](Oc2ccnc(OC)c2-c2cc(Nc3cnc(C#N)cn3)n[nH]2)CC1`, in test [3], the IC50 was less than 50 nM.

As for `COc1nc(C(F)F)cc(O[C@@H]2CC[C@H](N)C2)c1-c1cc(Nc2cnc(C#N)cn2)n[nH]1`, the IC50 in test [3] is less than 50 nM.

With `N#Cc1cnc(Nc2cc(-c3cnccc3O[C@H]3C[C@H](N)C3)[nH]n2)cn1`, the IC50 in test [3] was greater than 1000 nM.

For `COc1cc(C)nc(O[C@@H]2CC[C@@H](N(C)C)C2)c1-c1cc(Nc2cnc(C#N)cn2)n[nH]1`, the IC50 in test [3] was 50 to 100 nM.

As to `COc1cncc(O[C@H]2C[C@H](N)C2)c1-c1cc(Nc2cnc(C#N)cn2)n[nH]1`, in test [3], the IC50 was in the range of 100 to 500 nM.

For `Cc1ccc(O[C@H]2CC[C@H](N)CC2)c(-c2cc(Nc3cnc(C#N)cn3)n[nH]2)n1`, the IC50 in test [4] lay within 1 to 10 nM.

As to `N#Cc1cnc(Nc2cc(-c3nc(C4CC4)ccc3O[C@@H]3CC[C@H](N)C3)[nH]n2)cn1`, in test [4], the IC50 was in the range of 1 to 10 nM.

On to `COc1nc(C)cc(O[C@@H]2CC[C@H](N)C2)c1-c1cc(Nc2ccc(C#N)nc2)n[nH]1`, for which, in test [3], the IC50 was 100 to 500 nM.

Turning to `COc1nc(C)cc(O[C@@H]2CCCC[C@H](N)C2)c1-c1cc(Nc2cnc(C#N)cn2)n[nH]1`, the IC50 in test [3] is less than 50 nM.

In the case of `Cc1ccc(O[C@@H]2CC[C@@H](N)C2)c(-c2cc(Nc3cnc(C#N)cn3)n[nH]2)n1`, in test [4], the IC50 is less than 1 nM.

With `CN[C@@H]1CC[C@@H](Oc2nccc(OC)c2-c2cc(Nc3cnc(C#N)cn3)n[nH]2)C1`, in test [3], the IC50 was in the range of 100 to 500 nM.

On to `CN[C@@H]1CC[C@@H](Oc2cc(C3CC3)nc(OC)c2-c2cc(Nc3cnc(C#N)cn3)n[nH]2)C1`, for which, in test [3], the IC50 was less than 50 nM.

For `COc1nc(C)cc(O[C@@H]2CC[C@H]2N)c1-c1cc(Nc2cnc(C#N)cn2)n[nH]1`, the IC50 in test [3] is less than 50 nM.

As to “5-((5-(4-(((1R,3R)-3-aminocyclopentyl)oxy)pyridin-3-yl)-1H-pyrazol-3-yl)amino)pyrazine-2-carbonitrile”, the IC50 in test [4] is 10 to 100 nM; in test [3], greater than 1000 nM.

`COc1cncc(O[C@H]2CC[C@H](N)CC2)c1-c1cc(Nc2cnc(C#N)cn2)n[nH]1`: the IC50 in test [3] was 100 to 500 nM.

For `COc1nc(CO)cc(O[C@@H]2CC[C@H](N)C2)c1-c1cc(Nc2cnc(C#N)cn2)n[nH]1`, in test [3], the IC50 lay within 50 to 100 nM.

Take `CN[C@@H]1CC[C@@H](Oc2ccc(C)nc2-c2cc(Nc3cnc(C#N)cn3)n[nH]2)C1`: the IC50 in test [4] lay in the range of 1 to 10 nM.

Regarding `COc1cc(C)nc(O[C@@H]2CC[C@@H](N)C2)c1-c1cc(Nc2cnc(C#N)cn2)n[nH]1`, the IC50 in test [3] was greater than 1000 nM.

Source of the values: patent US20260382603A1, “CHECKPOINT KINASE 1 (CHK1) INHIBITORS COMBINATIONS AND USES THEREOF” (published 2026).
